Measured values reported in ChEMBL document CHEMBL1139598, “A discriminant model constructed by the support vector machine method for HERG potassium channel inhibitors” (Bioorg Med Chem Lett, 2005).
pIC50: −log10 of the molar value.

Sequences of proteins named here, by UniProt entry; tags and fusion partners are left off. A change or cut given only in a name is not applied to a line headed by its entry.
UniProt Q12809: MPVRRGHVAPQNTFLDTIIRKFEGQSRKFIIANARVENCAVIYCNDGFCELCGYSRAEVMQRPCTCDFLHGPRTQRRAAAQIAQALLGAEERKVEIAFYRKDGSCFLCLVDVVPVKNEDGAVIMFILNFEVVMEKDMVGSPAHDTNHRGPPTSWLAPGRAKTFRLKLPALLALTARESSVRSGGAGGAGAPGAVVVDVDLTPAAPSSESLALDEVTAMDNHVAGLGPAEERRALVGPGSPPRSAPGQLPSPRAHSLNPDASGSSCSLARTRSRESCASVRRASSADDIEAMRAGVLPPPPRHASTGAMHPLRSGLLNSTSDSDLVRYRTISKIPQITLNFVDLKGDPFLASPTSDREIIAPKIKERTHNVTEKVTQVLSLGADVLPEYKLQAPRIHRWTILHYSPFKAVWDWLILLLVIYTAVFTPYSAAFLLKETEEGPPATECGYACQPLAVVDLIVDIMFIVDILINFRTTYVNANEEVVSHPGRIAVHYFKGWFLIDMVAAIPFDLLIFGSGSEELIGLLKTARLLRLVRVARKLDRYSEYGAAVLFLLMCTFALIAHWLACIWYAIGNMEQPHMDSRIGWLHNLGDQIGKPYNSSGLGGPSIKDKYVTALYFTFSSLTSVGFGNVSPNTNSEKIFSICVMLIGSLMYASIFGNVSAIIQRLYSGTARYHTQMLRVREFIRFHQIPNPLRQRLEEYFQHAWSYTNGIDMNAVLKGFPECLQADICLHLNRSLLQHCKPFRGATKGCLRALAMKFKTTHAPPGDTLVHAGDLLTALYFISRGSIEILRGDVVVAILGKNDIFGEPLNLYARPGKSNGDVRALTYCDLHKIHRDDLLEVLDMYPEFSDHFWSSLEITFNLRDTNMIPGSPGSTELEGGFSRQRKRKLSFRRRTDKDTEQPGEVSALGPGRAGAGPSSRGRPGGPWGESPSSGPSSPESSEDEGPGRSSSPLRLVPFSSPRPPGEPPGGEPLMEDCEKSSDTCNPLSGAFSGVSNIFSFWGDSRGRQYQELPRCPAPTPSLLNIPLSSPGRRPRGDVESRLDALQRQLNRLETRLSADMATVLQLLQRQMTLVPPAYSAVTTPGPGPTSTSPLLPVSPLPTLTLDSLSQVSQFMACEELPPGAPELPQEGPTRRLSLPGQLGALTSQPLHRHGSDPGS

Molecular target: Voltage-gated inwardly rectifying potassium channel KCNH2 (Homo sapiens, UniProt Q12809)

**Q.** CN1CCCCC1CCN1c2ccccc2Sc2ccc([S+](C)[O-])cc21 (stereo unspecified) [MESORIDAZINE] was tested. Which pIC50 did it give?
**A.** 6.26
